Data from patent publication US20050010368A1, “Method for the prediction of binding targets and the design of ligands” (priority 1997, published 2005).

Details: compared with wild type pepstatin A

In the case of Iva-Val-Val-Sta-Phe-Sta, the water solubility is reported as “low water solubility”.
